Measurements reported in PMC5404377 (Bioorganic & medicinal chemistry letters, 2016).

Chains of the proteins cited; added tags and fusions are not shown. Lines headed by an entry give the natural chain unless they say otherwise; changes in a name come on top.
UniProt P41145: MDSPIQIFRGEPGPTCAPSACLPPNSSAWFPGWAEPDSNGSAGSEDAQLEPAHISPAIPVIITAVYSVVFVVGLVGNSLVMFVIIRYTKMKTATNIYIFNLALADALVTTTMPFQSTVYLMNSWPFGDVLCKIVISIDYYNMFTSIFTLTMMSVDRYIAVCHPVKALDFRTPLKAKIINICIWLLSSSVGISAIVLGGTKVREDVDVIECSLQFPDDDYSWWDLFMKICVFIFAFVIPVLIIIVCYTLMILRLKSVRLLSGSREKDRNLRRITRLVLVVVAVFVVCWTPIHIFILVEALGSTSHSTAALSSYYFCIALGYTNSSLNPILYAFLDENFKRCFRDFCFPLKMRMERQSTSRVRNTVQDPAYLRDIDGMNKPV
UniProt P35372, whole entry: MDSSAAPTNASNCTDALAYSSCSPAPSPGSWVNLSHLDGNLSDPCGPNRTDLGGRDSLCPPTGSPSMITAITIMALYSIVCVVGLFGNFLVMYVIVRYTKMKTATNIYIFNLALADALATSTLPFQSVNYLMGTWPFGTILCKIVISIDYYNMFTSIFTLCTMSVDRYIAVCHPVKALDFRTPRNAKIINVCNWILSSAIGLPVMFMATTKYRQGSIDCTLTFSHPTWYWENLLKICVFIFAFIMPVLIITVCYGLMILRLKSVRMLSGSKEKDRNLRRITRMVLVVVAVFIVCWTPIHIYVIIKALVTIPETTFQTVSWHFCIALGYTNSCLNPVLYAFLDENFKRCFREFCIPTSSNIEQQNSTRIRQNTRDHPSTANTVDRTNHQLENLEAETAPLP
UniProt P33535, whole entry: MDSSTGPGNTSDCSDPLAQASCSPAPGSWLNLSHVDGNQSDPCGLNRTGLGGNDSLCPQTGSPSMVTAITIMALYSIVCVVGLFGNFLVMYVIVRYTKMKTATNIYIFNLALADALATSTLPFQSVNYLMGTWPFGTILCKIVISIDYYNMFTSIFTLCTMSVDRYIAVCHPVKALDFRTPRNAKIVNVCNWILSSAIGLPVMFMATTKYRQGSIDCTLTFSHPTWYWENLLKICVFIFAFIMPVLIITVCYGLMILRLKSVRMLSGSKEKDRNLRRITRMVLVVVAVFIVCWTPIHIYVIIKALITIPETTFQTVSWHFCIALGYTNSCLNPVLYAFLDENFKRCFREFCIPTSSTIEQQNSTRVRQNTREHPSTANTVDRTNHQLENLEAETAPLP

Columns and labels:
[1] = target: hKOR (Homo sapiens, UniProt P41145); type: binding; details: read-out: Ki (nM) ± SEM KOR
[2] = target: hMOR (Homo sapiens, UniProt P35372)
[3] = target: MOR (Rattus norvegicus, UniProt P33535); experiment: [35S]GTPγS assay, agonist efficacy at MOR; type: biochemical

Structure (SMILES): O=C1/C(=C/c2ccccc2)C[C@@]2(O)[C@H]3Cc4ccc(O)c5c4[C@@]2(CCN3CCc2ccccc2)[C@H]1O5 [Compound 7]
- Ki [1]: 602 ± 60 nM
- Ki [2]: 56 ± 3.8 nM
- EC50 [3]: 253 ± 70 nM
